Data published in patent publication US20110105389A1 (priority 2009, published 2011).
pIC50, pKi: −log10 of the molar value.

Chains of the proteins cited; added tags and fusions are not shown.
UniProt Q92847, whole entry: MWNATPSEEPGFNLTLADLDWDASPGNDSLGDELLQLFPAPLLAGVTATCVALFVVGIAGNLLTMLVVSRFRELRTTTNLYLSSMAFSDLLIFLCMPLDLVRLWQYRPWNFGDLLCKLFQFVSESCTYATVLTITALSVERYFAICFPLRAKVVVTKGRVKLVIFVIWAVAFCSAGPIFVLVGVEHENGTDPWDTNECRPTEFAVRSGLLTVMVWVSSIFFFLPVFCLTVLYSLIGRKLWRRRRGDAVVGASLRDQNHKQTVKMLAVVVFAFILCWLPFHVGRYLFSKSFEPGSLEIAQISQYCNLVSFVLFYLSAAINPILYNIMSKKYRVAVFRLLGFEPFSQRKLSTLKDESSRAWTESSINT
UniProt P10635, whole entry: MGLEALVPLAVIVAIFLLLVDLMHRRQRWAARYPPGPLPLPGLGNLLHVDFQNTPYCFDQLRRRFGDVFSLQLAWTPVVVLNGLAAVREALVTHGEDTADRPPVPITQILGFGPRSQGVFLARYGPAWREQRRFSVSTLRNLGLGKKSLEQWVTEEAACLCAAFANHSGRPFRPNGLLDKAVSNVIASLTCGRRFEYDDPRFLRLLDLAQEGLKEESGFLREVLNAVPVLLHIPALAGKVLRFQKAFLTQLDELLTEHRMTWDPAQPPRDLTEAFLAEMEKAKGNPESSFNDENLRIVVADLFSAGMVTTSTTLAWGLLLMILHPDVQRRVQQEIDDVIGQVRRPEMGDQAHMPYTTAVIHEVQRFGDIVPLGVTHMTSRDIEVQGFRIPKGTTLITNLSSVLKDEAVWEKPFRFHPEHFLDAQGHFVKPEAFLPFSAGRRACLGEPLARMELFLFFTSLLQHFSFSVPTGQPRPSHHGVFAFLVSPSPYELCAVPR
UniProt P08684, whole entry: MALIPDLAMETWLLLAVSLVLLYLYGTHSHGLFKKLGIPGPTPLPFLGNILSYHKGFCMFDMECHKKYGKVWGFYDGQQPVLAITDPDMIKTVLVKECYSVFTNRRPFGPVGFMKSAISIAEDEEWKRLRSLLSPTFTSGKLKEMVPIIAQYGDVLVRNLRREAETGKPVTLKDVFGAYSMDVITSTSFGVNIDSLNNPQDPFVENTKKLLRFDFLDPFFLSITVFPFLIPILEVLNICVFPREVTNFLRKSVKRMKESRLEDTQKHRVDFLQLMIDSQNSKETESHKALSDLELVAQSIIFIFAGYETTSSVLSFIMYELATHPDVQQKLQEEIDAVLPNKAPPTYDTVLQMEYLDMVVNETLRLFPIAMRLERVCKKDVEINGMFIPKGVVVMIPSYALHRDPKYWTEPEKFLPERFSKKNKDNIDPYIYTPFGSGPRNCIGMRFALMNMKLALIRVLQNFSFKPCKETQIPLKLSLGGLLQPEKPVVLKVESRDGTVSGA

Experiments:
[1] = molecular target: human ghrelin receptor (GRLN, growth hormone secretagogue receptor, hGHS-R1a) (Homo sapiens, UniProt Q92847); test: Competitive radioligand binding assay (ghrelin receptor), Method B1; conditions: Ghrelin receptor binding activity
[2] = molecular target: ghrelin receptor (HEK-GHSR1 stable cells) (Homo sapiens, UniProt Q92847); test: Ghrelin receptor inverse agonist assay (HTRF IP-one), Method B4; conditions: read-out: IC50 (Inverse Agonist Activity), inverse agonist at the ghrelin receptor
[3] = molecular target: GHS-R1a receptor (HEK293 cells expressing GHS-R1a receptor) (Homo sapiens, UniProt Q92847); test: Fluorescence functional assay (ghrelin receptor), Method B2, agonist and antagonist mode; conditions: functional activity as an antagonist at the ghrelin receptor, Methods B2 and B3
[4] = Metabolic stability in human liver microsomes, Method B8; conditions: human liver microsomes 0.8 mg/mL, 5 μM compound, 37° C.
[5] = molecular target: CYP2D6 (Homo sapiens, UniProt P10635); test: Cytochrome P450 inhibition, Method B6; conditions: read-out: IC50 CYP 2D6; Table 4b; dextromethorphan used as substrate
[6] = molecular target: CYP3A4 (Homo sapiens, UniProt P08684); test: Cytochrome P450 inhibition, Method B6 (two substrates); conditions: read-out: IC50 CYP 3A4; Table 4b; midazolam used as substrate
[7] = Pharmacokinetic analysis (intravenous and oral), Method B9; conditions: Table 10b; for % F: 2 mg/mL intravenous and 8 mg/mL oral typically employed; for Cl / t1/2: 2 mg/mL intravenous typically employed

Row | SMILES | pIC50 [1] | pIC50 [2] | further results
1 | CC(C)[C@@H]1NCCOc2cccc3c2CC(CC3)CNC(=O)[C@@H](Cc2ccc(Cl)cc2)NC(=O)[C@H](C(C)O)N(C)C1=O (single isomer, unassigned) [1858a] | 8.00 to 9.00 | 7.00 to 7.30 | –
2 | CC[C@@H]1CCc2ccc(O)cc2OCCN[C@@H](C(C)C)C(=O)N(C)[C@@H](C(C)O)C(=O)N[C@H](Cc2ccccc2)C(=O)N1 (stereo partly shown) | 7.00 to 8.00 | 7.00 to 7.30 | –
3 | CCC(C)[C@@H]1NCCOC2CCCCC2CCCNC(=O)[C@@H](Cc2ccccc2)NC(=O)[C@H](C(C)O)N(C)C1=O (stereo partly shown) | – | – | pKi [1]: 8.00 to 9.00; Antagonist Activity [3]: C (C = 10-100 nM); pIC50 [5]: < 5.30; pIC50 [6]: 5.59
4 | CC(C)[C@@H]1NCCOc2cccc3c2CC(CC3)CNC(=O)[C@@H](Cc2ccc(Cl)cc2)NC(=O)[C@H](C(C)O)N(C)C1=O (single isomer, unassigned) [1858b] | 7.00 to 8.00 | 6.30 to 7.00 | –
5 | CC(O)[C@H]1C(=O)N[C@H](Cc2c[nH]c3ccccc23)C(=O)NC/C=C/c2c(F)cccc2OCCN[C@@H](C2(C)CC2)C(=O)N1C (stereo partly shown) | 7.00 to 8.00 | 6.30 to 7.00 | Antagonist Activity [3]: B (B = 1-10 nM); % F [7]: 2 ± 1%; Cl [7]: 24 ± 11 mL/min/kg; t1/2 [7]: 1.17 ± 0.13 h
6 | CC(C)[C@@H]1NCCOc2ccccc2C2CCC(C2)NC(=O)[C@@H](Cc2ccc(Cl)cc2)NC(=O)[C@H](C(C)O)N(C)C1=O (stereo partly shown) | 8.00 to 9.00 | 7.30 to 8.00 | Cl [7]: 34 ± 4 mL/min/kg; t1/2 [7]: 1.08 ± 0.417 h
7 | CC(C)[C@@H]1NCCOc2ccccc2C[C@H](O)[C@@H](C)NC(=O)[C@@H](Cc2c[nH]c3ccccc23)NC(=O)[C@H](C(C)O)N(C)C1=O (stereo partly shown) | – | – | Antagonist Activity [3]: B (B = 1-10 nM); pIC50 [5]: 4.90; pIC50 [6]: 5.85
8 | CCC1CCc2cc(F)ccc2OCCN[C@@H](C(C)C)C(=O)N(C)[C@@H](C(C)O)C(=O)N[C@H](Cc2c[nH]c3ccccc23)C(=O)N1 (stereo partly shown) | 7.00 to 8.00 | 7.00 to 7.30 | Antagonist Activity [3]: B (B = 1-10 nM)
9 | CC(C)[C@@H]1NCCOc2cccc(F)c2/C=C/CNC(=O)[C@@H](Cc2cccc(F)c2)NC(=O)[C@H](C(C)O)N(C)C1=O (stereo partly shown) | – | – | Antagonist Activity [3]: B (B = 1-10 nM); pIC50 [5]: 5.20; pIC50 [6]: 5.85
10 | CC[C@@H]1NCCOc2cccc3c2CC(CC3)CNC(=O)[C@@H](Cc2ccc(Cl)cc2)NC(=O)[C@H](C(C)O)N(C)C1=O (stereo partly shown) | 7.00 to 8.00 | 7.00 to 7.30 | –
11 | CC[C@@H]1CCc2ccc(O)cc2OCCN[C@@H](C(C)C)C(=O)N(C)[C@@H](C(C)O)C(=O)N[C@H](Cc2c[nH]c3ccccc23)C(=O)N1 (stereo partly shown) | 8.00 to 9.00 | 7.00 to 7.30 | –
12 | CCC(C)[C@@H]1NCCOc2ccccc2[C@H]2C[C@@H]2CNC(=O)[C@@H](Cc2ccccc2)NC(=O)[C@H](C(C)O)N(C)C1=O (stereo partly shown) | 7.00 to 8.00 | – | pKi [1]: 8.00 to 9.00; Antagonist Activity [3]: C (C = 10-100 nM)
13 | CC(C)[C@@H]1NCCOc2cccc(F)c2/C=C/CNC(=O)[C@@H](Cc2ccccc2)NC(=O)[C@H](C(C)O)N(C)C1=O (stereo partly shown) | 8.00 to 9.00 | 6.30 to 7.00 | –
14 | CC(C)[C@@H]1NCCOc2cccc(F)c2/C=C/CNC(=O)[C@@H](Cc2ccc(F)cc2)NC(=O)[C@H](C(C)O)N(C)C1=O (stereo partly shown) | 8.00 to 9.00 | 6.30 to 7.00 | –
15 | CCC(C)[C@@H]1NCCOc2cccc3c2CC(CC3)CNC(=O)[C@@H](Cc2cccc(F)c2)NC(=O)[C@H](C(C)O)N(C)C1=O (single isomer, unassigned) [1792a] | 8.00 to 9.00 | 7.00 to 7.30 | –
16 | CCC(C)[C@@H]1NCCOc2cccc3c2CC(CC3)CNC(=O)[C@@H](Cc2c[nH]c3ccccc23)NC(=O)[C@H](C(C)O)N(C)C1=O (stereo partly shown) | 8.00 to 9.00 | 6.30 to 7.00 | Antagonist Activity [3]: B (B = 1-10 nM); % F [7]: 81 ± 55%; Cl [7]: 26 ± 8 mL/min/kg; t1/2 [7]: 0.867 ± 0.017 h
17 | CCC(C)[C@@H]1NCCOc2ccccc2/C=C\CNC(=O)[C@@H](Cc2ccc(F)cc2)NC(=O)[C@H](C(C)O)N(C)C1=O (stereo partly shown) | – | – | pKi [1]: 6.30 to 7.00
18 | CC(C)[C@@H]1NCCOc2cccc3c2CC(CC3)CNC(=O)[C@@H](Cc2ccc(C(F)(F)F)cc2)NC(=O)[C@H](C(C)O)N(C)C1=O (single isomer, unassigned) [1860a] | 8.00 to 9.00 | 7.00 to 7.30 | –
19 | CC(O)[C@H]1C(=O)N[C@H](Cc2c[nH]c3ccccc23)C(=O)NC2CCC(C2)c2ccccc2OCCN[C@@H](C2(C)CC2)C(=O)N1C (single isomer, unassigned) | 7.00 to 8.00 | – | –
20 | CC(O)[C@H]1C(=O)N[C@H](Cc2ccc(F)cc2)C(=O)N[C@H](C)CCc2ccc(F)cc2OCCN[C@@H](C2(C)CC2)C(=O)N1C (stereo partly shown) | 8.00 to 9.00 | 7.30 to 8.00 | –
21 | CC[C@@H]1NCCOc2ccccc2C2CCC(C2)NC(=O)[C@@H](Cc2c[nH]c3ccccc23)NC(=O)[C@H](C(C)O)N(C)C1=O (single isomer, unassigned) [1900a] | 7.00 to 8.00 | – | –
22 | CC(O)[C@H]1C(=O)N[C@H](Cc2ccc(F)cc2)C(=O)NCC#Cc2ccc(F)cc2OCCN[C@@H](C2(C)CC2)C(=O)N1C (stereo partly shown) | 8.00 to 9.00 | 7.30 to 8.00 | pIC50 [6]: 4.94
23 | CC[C@@H]1NC[C@@H](C)Oc2cc(F)ccc2CC[C@@H](C)NC(=O)[C@@H](Cc2ccccc2)NC(=O)[C@H](C(C)O)N(C)C1=O (stereo partly shown) | < 6.30 | 6.30 to 7.00 | –
24 | CCC1CCc2cccnc2OCCNC(C2(C)CC2)C(=O)N(C)C(C(C)O)C(=O)NC(Cc2c[nH]c3ccccc23)C(=O)N1 (single isomer, unassigned) [1922a] | 8.00 to 9.00 | 7.00 to 7.30 | –

The next lines start with results.

Row | pIC50 [1] | pIC50 [2] | SMILES | further results
25 | 7.00 to 8.00 | 6.30 to 7.00 | CC[C@@H]1CCc2ccc(F)cc2OCCN[C@@H](C(C)C)C(=O)N(C)[C@@H](C(C)O)C(=O)N[C@H]([C@@H](C)c2c[nH]c3ccccc23)C(=O)N1 (stereo partly shown) | Antagonist Activity [3]: C (C = 10-100 nM); HLM, metabolic stability in human liver microsomes [4]: 14.3 μL/min/mg protein
26 | 8.00 to 9.00 | 7.30 to 8.00 | CC(C)[C@@H]1NCCOc2ccccc2C#C[C@@H](C)NC(=O)[C@@H]([C@H](C)c2ccccc2)NC(=O)[C@H](C(C)O)N(C)C1=O (stereo partly shown) | HLM, metabolic stability in human liver microsomes [4]: 40.4 μL/min/mg protein
27 | 7.00 to 8.00 | 6.30 to 7.00 | CC(C)[C@@H]1NCCOc2cccc(F)c2/C=C/CNC(=O)[C@@H]([C@H](C)c2ccccc2)NC(=O)[C@H](C(C)O)N(C)C1=O (stereo partly shown) | –
28 | 7.00 to 8.00 | 6.30 to 7.00 | CC(C)[C@@H]1NCCOc2ccccc2C2CCC(C2)NC(=O)[C@@H](Cc2ccccc2)NC(=O)[C@H](C(C)O)N(C)C1=O (single isomer, unassigned) [1848b] | –
29 | 8.00 to 9.00 | 7.00 to 7.30 | CCC(C)[C@@H]1NCCOc2cccc3c2CC(CC3)CNC(=O)[C@@H](Cc2ccc(F)cc2)NC(=O)[C@H](C(C)O)N(C)C1=O (stereo partly shown) | –
30 | < 6.30 | 6.30 to 7.00 | CC[C@@H]1NC[C@@H](C)Oc2cc(F)ccc2CC[C@@H](C)NC(=O)[C@@H](Cc2c[nH]c3ccccc23)NC(=O)[C@H](C(C)O)N(C)C1=O (stereo partly shown) | –
31 | 8.00 to 9.00 | 7.00 to 7.30 | CCC(C)[C@@H]1NCCOc2cccc3c2CC(CC3)CNC(=O)[C@@H](Cc2ccccc2)NC(=O)[C@H](C(C)O)N(C)C1=O (single isomer, unassigned) [1825] | –
32 | 7.00 to 8.00 | 7.30 to 8.00 | CC(C)[C@@H]1NCCOc2ccccc2C2CCC(C2)NC(=O)[C@@H](Cc2ccc(F)cc2)NC(=O)[C@H](C(C)O)N(C)C1=O (single isomer, unassigned) [1903a] | Cl [7]: 17 ± 9 mL/min/kg; t1/2 [7]: 0.517 ± 0.217 h
33 | 8.00 to 9.00 | 6.30 to 7.00 | CCC(C)[C@@H]1NCCOc2cccc3c2CC(CC3)CNC(=O)[C@@H](Cc2ccc(O)cc2)NC(=O)[C@H](C(C)O)N(C)C1=O (single isomer, unassigned) [1790a] | Antagonist Activity [3]: C (C = 10-100 nM)
34 | 8.00 to 9.00 | 7.30 to 8.00 | CC(C)[C@@H]1NCCOc2ccccc2C2CCC(C2)NC(=O)[C@@H](Cc2ccccc2)NC(=O)[C@H](C(C)O)N(C)C1=O (single isomer, unassigned) [1848a] | –
35 | 8.00 to 9.00 | 6.30 to 7.00 | CC(O)[C@H]1C(=O)N[C@H](Cc2c[nH]c3ccc(F)cc23)C(=O)N[C@H](C)CCc2ccccc2OCCN[C@@H](C2CCCCC2)C(=O)N1C (stereo partly shown) | –
36 | 8.00 to 9.00 | 7.30 to 8.00 | CC(C)[C@@H]1NCCOc2ccccc2/C=C/CNC(=O)[C@@H](Cc2ccc(Cl)cc2)NC(=O)[C@H](C(C)O)N(C)C1=O (stereo partly shown) | –
37 | 8.00 to 9.00 | 6.30 to 7.00 | CC[C@@H]1CCc2ccc(F)cc2OCCN[C@@H](C2(C)CC2)C(=O)N(C)[C@@H](C(C)O)C(=O)N[C@H]([C@H](C)c2ccccc2)C(=O)N1 (stereo partly shown) | Antagonist Activity [3]: B (B = 1-10 nM); HLM, metabolic stability in human liver microsomes [4]: 15.6 μL/min/mg protein
38 | 8.00 to 9.00 | 6.30 to 7.00 | CC(C)[C@@H]1NCCOc2cccc(F)c2C#CCNC(=O)[C@@H](Cc2c[nH]c3ccccc23)NC(=O)[C@H](C(C)O)N(C)C1=O (stereo partly shown) | Antagonist Activity [3]: C (C = 10-100 nM); % F [7]: 36 ± 29%; Cl [7]: 18 ± 16 mL/min/kg; t1/2 [7]: 1.23 ± 0.45 h
39 | 6.30 to 7.00 | – | CCC(C)[C@@H]1NCCOc2ccccc2CC[C@H](C)NC(=O)[C@@H](Cc2ccc(Cl)cc2)NC(=O)[C@H](C(C)O)N(C)C1=O (stereo partly shown) | –
40 | 6.30 to 7.00 | – | CC(O)[C@H]1C(=O)N[C@H](Cc2c[nH]c3ccccc23)C(=O)N[C@@H](C)CCc2ccccc2OCCN[C@@H](C2CCCCC2)C(=O)N1C (stereo partly shown) | –
41 | 8.00 to 9.00 | 7.00 to 7.30 | CC(O)[C@H]1C(=O)N[C@H](Cc2ccccc2)C(=O)NCC2CCc3cccc(c3C2)OCCN[C@@H](C(C)(C)C)C(=O)N1C (stereo partly shown) | Antagonist Activity [3]: B (B = 1-10 nM); Cl [7]: 8 ± 4 mL/min/kg; t1/2 [7]: 1.75 ± 0.333 h
